Only a part is listed here, and it is no random draw. Some salts or complexes appear as unconnected parts, following the source record. Active and inactive are the calls of the source.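 Rule for the calls: active = activation above the run cutoff, the mean activation of all test compounds plus 3 SD (cut at about 40% in these data); inactive = the rest.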
Assay: ATP EC20 calcium response enhancers, parental CHO-K1 – cell-based, Fluo-8 calcium fluorescence, full deck, 1536-well, counter-screen for M1 PAM project, primary screen (AID 602247);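 note: peak over basal fluorescence ratio in a 140 s read after ATP addition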
Settings: parental CHO-K1, ATP EC20, Fluo-8 calcium fluorescence; at 3 µM; hits give high values; 0% at ATP EC20, 100% at ATP max

Structure (SMILES) | activation
CP(=O)(Nc1ccccn1)Oc1ccccc1 (stereo not given) | inactive: 3.38%
COc1ccccc1OP(C)(=O)Nc1ccc(C)cc1C (stereo not given) | inactive: 2.83%
O=[N+]([O-])c1cc([N+](=O)[O-])c(Nc2ccccn2)c([N+](=O)[O-])c1 | inactive: 5.85%
Cc1c(NP(C)(=O)Oc2ccc(C(C)C)cc2)c(=O)n(-c2ccccc2)n1C (stereo not given) | inactive: 5.06%
COc1ccc(OP(C)(=O)Nc2ccccc2Br)cc1 (stereo not given) | inactive: 22.6%
COc1ccccc1OP(C)(=O)Nc1ccc(C)c(C)c1 (stereo not given) | inactive: 1.23%
O=C1C(O)=C([N+](=O)[O-])C(=O)C(O)=C1[N+](=O)[O-] | inactive: 21.6%
Cc1cc(C)cc(OP(C)(=O)Nc2cccc(C(F)(F)F)c2)c1 (stereo not given) | inactive: 12.3%
CP(=O)(OCCOc1ccccc1)OCCOc1ccccc1 | inactive: 14.8%
CCCCCCCCCCCCCCCC1C[N+](C)(C)CCOP(C)(=O)O1 (stereo not given) | inactive: 19.8%
CP(=O)(Nc1ccc(Cl)cc1Cl)Oc1ccccc1 (stereo not given) | inactive: 11.1%
CP(=O)(OC12CC3CC(CC(C3)C1)C2)OC12CC3CC(CC(C3)C1)C2 | inactive: 11.8%
CCOC(=O)c1ccc(NP(C)(=O)Oc2ccc(Cl)cc2)cc1 (stereo not given) | inactive: 20.1%
CP(=O)(Oc1ccccc1)N1CCOC1=O (stereo not given) | inactive: 19.4%
CCc1ccc(OP(C)(=O)Nc2cccnc2)cc1 (stereo not given) | inactive: 5.68%
COc1ccccc1OP(C)(=O)Nc1c(C)n(C)n(-c2ccccc2)c1=O (stereo not given) | inactive: -6.33%
O=C(OCCCN1CCCC1)C(O)(c1ccccc1)C1CCCCC1 (stereo not given) | inactive: 16.3%
CCN(CC)CC(O)COC(=O)C(O)(c1ccccc1)C1CCCCC1 (stereo not given) | inactive: 0.24%
COc1ccc(OP(C)(=O)Nc2ccc(Br)cc2)cc1 (stereo not given) | inactive: 12.9%
CN(C)C(=O)c1c([N+](=O)[O-])cc([N+](=O)[O-])cc1[N+](=O)[O-] | inactive: 7.76%
CP(=O)(Nc1ccc(Cl)cc1)Oc1ccc(F)cc1 (stereo not given) | inactive: -4.55%
CC(C)(C)c1ccc(OP(C)(=O)O)cc1 | inactive: 15.2%
COc1ccccc1OP(C)(=O)Nc1ccccc1Br (stereo not given) | inactive: 9.54%
CCOP(C)(=S)SCC(=O)NC(C)(CC)C(=O)O (stereo not given) | inactive: 13.5%
CP(=O)(Nc1ccc(SC(F)(F)F)cc1)Oc1ccc(F)cc1 (stereo not given) | inactive: 7.89%

Structure (SMILES) | activation
O=[N+]([O-])c1cc([N+](=O)[O-])c(C(F)(F)F)c([N+](=O)[O-])c1O | inactive: -2.88%
Cc1ccccc1NP(C)(=O)Nc1ccccc1C | inactive: 13.6%
CP(=O)(Nc1ccc2c(c1)OCCO2)Oc1ccccc1 (stereo not given) | inactive: 12.7%
COc1ccc(NP(C)(=O)Oc2ccccc2OC)cc1 (stereo not given) | inactive: -3.81%
CN(C)CCOC(=O)C(O)(c1ccccc1)C1CCCCC1 (stereo not given) | inactive: 0.93%
CN(C)C1(CNC(=O)c2ccc(Cl)c(S(N)(=O)=O)c2)CCCCC1 | inactive: 13.7%
COc1ccc(OP(C)(=O)Nc2cccc(Br)c2)cc1 (stereo not given) | inactive: -8.94%
Cc1c(C(c2ccc3c(c2)OCO3)c2c(C)n(C)n(-c3ccccc3)c2=O)c(=O)n(-c2ccccc2)n1C.O=[N+]([O-])c1cc([N+](=O)[O-])c(O)c([N+](=O)[O-])c1 | inactive: 27.4%
O=[N+]([O-])c1cc([N+](=O)[O-])c(NCC2CCS(=O)(=O)C2)c([N+](=O)[O-])c1 (stereo not given) | inactive: 20%
Cc1cc(-c2cccc3ccccc23)c(C)cn1.O=[N+]([O-])c1cc([N+](=O)[O-])c(O)c([N+](=O)[O-])c1 | inactive: 2.14%
O=[N+]([O-])c1ccc(OP2(=O)COCCO2)cc1 (stereo not given) | inactive: 17.9%
COc1ccc(OP(C)(=O)Nc2ccc(SC(F)(F)F)cc2)cc1 (stereo not given) | inactive: 23.2%
CCOC(=O)c1ccc(NP(C)(=O)Oc2ccc(F)cc2)cc1 (stereo not given) | inactive: 4.4%
CCN(CC)CCCNc1ccccc1[N+](=O)[O-].O=[N+]([O-])c1cc([N+](=O)[O-])c(O)c([N+](=O)[O-])c1 | inactive: 15.1%
CCCCCOc1ccc(NP(C)(=O)Oc2ccc(Cl)cc2Cl)cc1 (stereo not given) | inactive: 27.2%
O=[N+]([O-])c1cc([N+](=O)[O-])c(OC2CCCCC2O)c([N+](=O)[O-])c1 (stereo not given) | inactive: 20.9%
CP(=O)(Nc1ccccc1)Oc1ccc(F)cc1 (stereo not given) | inactive: 12.6%
CCN(CC)CCCOC(=O)C(O)(c1ccccc1)C1CCCCC1 (stereo not given) | inactive: 13.4%
Cc1c([N+](=O)[O-])cc([N+](=O)[O-])c(Br)c1[N+](=O)[O-] | inactive: 14.2%
CC(C)c1ccc(OP(C)(=O)Nc2ccc(SC(F)(F)F)cc2)cc1 (stereo not given) | inactive: 20.3%
CP(=O)(Nc1ccccc1F)Oc1ccccc1 (stereo not given) | inactive: -1.63%
O=[N+]([O-])c1cc([N+](=O)[O-])c(Nc2ccc(Cl)cc2)c([N+](=O)[O-])c1 | inactive: 4.38%
COc1ccc2c(c1O)-c1c(O)c(OC)cc3c1[C@H](C2)[N+](C)(C)CC3.O=[N+]([O-])c1cc([N+](=O)[O-])c([O-])c([N+](=O)[O-])c1[O-] | inactive: -4.81%
O=C(OCCN1CCN(CCOCc2ccccc2)CC1)C(O)(c1ccccc1)c1ccccc1 | inactive: 11%
O=C(OC1CN2CCC1CC2)c1ccc([N+](=O)[O-])cc1 (stereo not given) | inactive: 19.9%

— PubChem BioAssay AID602247 (The Scripps Research Institute Molecular Screening Center, 2012)
